Molecular target: T1, β-catenin/E-cadherin PPIs (Homo sapiens, UniProt P35222)
T1 construct: β-Catenin or its mutants (residues 138-686) was cloned into a pET-28b vector; made in house; host or cells: E. coli BL21 DE3
Assay: AlphaScreen selectivity assay, β-catenin/BCL9 versus β-catenin/E-cadherin
Assay type: binding
Description: Human BCL9 (residues 350-375), N-terminally biotinylated human BCL9 (residues 350-375), N-terminally fluorescein-labeled human BCL9 (residues 350-375), and N-terminally biotinylated human E-cadherin (residues 824-877) were synthesized by InnoPep Inc. (San Diego, Calif., www.innopep.com). All synthesized peptides were purified by HPLC with purity >95%. The structures were validated by LC/MS. The sequences are shown in Table 2 (Ahx, 6-aminohexanoic acid).
The purity of the wild-type and mutant β-catenin proteins was all greater than 95% as determined by the SDS-PAGE gel analysis. Both the wild-type and mutant β-catenin proteins are stable under the testing conditions. Native non-denaturing gel electrophoresis was performed to confirm the homogeneity of the purified proteins. Experiments were performed in white opaque 384-well plates from PerkinElmer, and the samples were read on a Synergy 2 plate reader (Biotek) with a sensitivity setting of 200 using AlphaScreen protocol with excitation at 680 nm and emission at 570 nm. All dilutions were made in 1×assay buffer containing 25 mM HEPES (pH=7.0), 100 mM NaCl, 0.01% Triton X-100, and 0.1% BSA. […] The IC50 value was determined by nonlinear least-square analysis of GraphPad Prism 5.0. […]

The chains behind the UniProt entries cited, without tags or fusion partners. Residues count along the entry.
UniProt P35222, 138-686: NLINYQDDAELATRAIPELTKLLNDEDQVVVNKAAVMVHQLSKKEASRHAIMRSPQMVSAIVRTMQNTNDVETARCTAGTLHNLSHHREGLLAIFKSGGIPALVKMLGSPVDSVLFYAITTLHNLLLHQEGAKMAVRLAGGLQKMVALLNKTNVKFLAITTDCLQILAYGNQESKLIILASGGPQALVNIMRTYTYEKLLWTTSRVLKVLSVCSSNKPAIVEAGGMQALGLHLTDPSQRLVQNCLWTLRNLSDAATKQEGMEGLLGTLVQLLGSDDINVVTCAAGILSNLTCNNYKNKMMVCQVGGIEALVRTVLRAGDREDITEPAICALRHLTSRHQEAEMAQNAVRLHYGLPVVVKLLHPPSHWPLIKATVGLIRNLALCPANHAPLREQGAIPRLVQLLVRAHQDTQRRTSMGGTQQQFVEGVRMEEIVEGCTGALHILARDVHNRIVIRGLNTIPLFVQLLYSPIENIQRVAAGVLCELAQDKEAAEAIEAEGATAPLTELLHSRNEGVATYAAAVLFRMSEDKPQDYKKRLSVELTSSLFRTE

Structure (SMILES): O=C(Nc1ccc(O[C@H]2CCNC2)c(-c2ccc(F)cc2)c1)c1ccc(O[C@H]2CCNC2)c(-c2ccc(F)c(F)c2)c1 [Compound 21, (S)-3-((3′,4′-difluoro-5-((4′-fluoro-6-((S)-pyrrolidin-1-ium-3-yloxy)-[1,1′-biphenyl]-3-yl)carbamoyl)-[1,1′-biphenyl]-2-yl)oxy) pyrrolidin-1-ium chloride]
- selectivity for β-catenin/BCL9 over β-catenin/E-cadherin PPIs: 125 fold
